In patent US20100292169A1, “METHODS AND COMPOSITIONS FOR REGULATING HDAC6 ACTIVITY” (Duke University, priority 2005, published 2010):

Target: T1, HDAC6-Hsp90 interaction (Homo sapiens, UniProt Q9UBN7)
T1 construct: endogenous HDAC6 and Hsp90 can be abundantly and specifically co-immunoprecipitated from multiple cell lines; endogenous in cells; host or cells: A549
T1 sequence (Q9UBN7 1-1215): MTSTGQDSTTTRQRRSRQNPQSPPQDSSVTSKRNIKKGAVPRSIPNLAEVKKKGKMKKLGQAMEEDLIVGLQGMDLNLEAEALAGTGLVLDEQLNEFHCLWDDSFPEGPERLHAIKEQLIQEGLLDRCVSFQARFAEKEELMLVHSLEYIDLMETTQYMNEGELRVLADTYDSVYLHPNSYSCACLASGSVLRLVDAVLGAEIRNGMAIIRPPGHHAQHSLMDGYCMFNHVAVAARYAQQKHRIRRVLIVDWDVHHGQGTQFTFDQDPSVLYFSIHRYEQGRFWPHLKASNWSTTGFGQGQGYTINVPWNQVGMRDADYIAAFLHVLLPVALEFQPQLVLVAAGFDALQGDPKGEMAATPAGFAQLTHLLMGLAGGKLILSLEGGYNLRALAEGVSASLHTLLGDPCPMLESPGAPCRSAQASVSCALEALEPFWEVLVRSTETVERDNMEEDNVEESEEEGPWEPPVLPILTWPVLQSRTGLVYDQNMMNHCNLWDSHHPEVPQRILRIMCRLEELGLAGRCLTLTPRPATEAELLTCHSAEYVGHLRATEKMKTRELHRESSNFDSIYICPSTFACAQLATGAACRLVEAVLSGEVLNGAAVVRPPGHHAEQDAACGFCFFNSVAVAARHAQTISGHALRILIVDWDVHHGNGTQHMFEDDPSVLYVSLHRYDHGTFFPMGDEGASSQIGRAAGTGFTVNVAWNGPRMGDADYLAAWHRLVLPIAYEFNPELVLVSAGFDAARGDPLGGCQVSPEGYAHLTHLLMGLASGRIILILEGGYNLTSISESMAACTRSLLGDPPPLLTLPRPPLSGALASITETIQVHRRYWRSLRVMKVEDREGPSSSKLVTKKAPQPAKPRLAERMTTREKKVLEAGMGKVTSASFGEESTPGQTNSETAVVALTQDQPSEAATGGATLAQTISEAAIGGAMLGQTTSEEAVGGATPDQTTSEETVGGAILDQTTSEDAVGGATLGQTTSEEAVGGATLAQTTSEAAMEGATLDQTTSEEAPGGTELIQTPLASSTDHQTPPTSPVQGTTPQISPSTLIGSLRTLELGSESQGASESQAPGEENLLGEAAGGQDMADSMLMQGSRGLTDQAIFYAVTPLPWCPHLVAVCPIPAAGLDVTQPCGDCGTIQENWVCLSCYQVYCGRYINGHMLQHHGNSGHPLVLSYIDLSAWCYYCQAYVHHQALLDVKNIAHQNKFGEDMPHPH
Assay: HDAC6-Hsp90 co-immunoprecipitation in A549 cells
Assay type: cell-based
Conditions: 4 hour treatment, 1 μM

CC(/C=C/C(=O)NO)=C\[C@@H](C)C(=O)c1ccc(N(C)C)cc1 [trichostatin A]
association of HDAC6 with Hsp90: dissociation of HDAC6 from Hsp90
